This passage reports IC50 results from ChEMBL document CHEMBL5725562, “Substituted triazolopyridines and methods of use thereof” (2017).

Chains of the proteins cited; added tags and fusions are not shown.
UniProt Q15858, whole entry: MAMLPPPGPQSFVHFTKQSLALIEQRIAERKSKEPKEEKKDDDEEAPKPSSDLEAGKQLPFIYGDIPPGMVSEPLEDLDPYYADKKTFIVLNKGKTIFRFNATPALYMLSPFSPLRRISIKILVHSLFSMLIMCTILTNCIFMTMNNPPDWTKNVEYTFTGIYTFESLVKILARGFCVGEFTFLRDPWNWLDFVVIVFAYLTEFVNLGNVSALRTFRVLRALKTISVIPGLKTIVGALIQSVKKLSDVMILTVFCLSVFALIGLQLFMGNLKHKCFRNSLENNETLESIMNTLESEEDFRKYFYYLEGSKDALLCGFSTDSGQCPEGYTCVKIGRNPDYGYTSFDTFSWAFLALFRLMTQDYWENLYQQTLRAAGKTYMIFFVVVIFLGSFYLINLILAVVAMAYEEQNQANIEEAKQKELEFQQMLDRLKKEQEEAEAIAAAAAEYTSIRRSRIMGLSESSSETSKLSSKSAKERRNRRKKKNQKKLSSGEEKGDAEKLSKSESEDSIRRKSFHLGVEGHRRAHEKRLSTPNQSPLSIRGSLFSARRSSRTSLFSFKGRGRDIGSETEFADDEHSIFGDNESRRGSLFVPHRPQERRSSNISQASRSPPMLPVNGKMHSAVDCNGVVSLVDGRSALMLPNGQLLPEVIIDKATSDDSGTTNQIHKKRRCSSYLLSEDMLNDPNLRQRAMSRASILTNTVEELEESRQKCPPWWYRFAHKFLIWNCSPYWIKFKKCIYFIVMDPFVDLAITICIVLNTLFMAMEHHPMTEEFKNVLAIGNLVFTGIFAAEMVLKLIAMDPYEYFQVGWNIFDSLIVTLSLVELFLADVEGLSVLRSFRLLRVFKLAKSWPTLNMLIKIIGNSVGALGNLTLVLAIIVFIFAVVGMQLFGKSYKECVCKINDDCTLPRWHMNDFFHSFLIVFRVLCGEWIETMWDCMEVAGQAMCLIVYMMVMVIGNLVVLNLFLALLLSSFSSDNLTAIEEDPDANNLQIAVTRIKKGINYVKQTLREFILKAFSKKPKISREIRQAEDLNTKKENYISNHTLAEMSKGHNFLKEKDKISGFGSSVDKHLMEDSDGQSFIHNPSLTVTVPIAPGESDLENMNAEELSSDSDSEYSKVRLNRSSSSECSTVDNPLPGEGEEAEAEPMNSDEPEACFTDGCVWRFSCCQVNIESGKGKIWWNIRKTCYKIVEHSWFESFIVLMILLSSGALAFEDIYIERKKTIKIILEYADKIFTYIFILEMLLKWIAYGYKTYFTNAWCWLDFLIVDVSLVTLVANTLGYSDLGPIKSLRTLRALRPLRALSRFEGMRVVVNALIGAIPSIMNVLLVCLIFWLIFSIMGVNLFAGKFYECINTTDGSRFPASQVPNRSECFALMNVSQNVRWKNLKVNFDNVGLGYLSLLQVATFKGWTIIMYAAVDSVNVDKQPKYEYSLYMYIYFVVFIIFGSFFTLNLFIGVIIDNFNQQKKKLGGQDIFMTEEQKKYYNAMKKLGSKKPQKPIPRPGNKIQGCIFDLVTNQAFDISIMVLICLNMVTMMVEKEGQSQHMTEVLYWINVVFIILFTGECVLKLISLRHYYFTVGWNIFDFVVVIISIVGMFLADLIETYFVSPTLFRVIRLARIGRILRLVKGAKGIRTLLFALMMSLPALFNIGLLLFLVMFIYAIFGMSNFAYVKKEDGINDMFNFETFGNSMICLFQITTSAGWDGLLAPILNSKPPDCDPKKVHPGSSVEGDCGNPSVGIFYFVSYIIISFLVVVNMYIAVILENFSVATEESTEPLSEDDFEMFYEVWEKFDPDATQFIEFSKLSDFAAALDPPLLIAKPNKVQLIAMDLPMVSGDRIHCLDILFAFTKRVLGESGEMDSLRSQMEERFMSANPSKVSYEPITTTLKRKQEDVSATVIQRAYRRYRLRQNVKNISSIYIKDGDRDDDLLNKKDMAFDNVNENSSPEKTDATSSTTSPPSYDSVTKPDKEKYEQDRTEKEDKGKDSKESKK

This assay has as its target Sodium channel protein type 9 subunit alpha (Homo sapiens, UniProt Q15858).

Structures are written as SMILES. Where “and” joins values, the source holds several entries; their conditions need not be identical. Equal entries are not always repeated.

Usually IC50 stands for the concentration that inhibits the measured activity by half. With `O=S(=O)(Nc1nnc2cc(OCC34CC5CC(CC(C5)C3)C4)c(C3CC3)cn12)N1CCCC1`, the IC50 is 8.4 nM and 8 nM.
With `O=S(=O)(Nc1nnc2cc(OCC3CC4C5CCC(C5)C4C3)c(C3CC3)cn12)N1CCC1` (configuration not stated) the figure was 11.5 nM and 11 nM.
